The results in this text go back to US10149839B2, “Chemical compounds” (AstraZeneca AB, priority 2016, dated 2018).

By UniProt entry, the sequences of proteins in these tests, tags left out. Residues count along the entry.
UniProt P03372, 307-554: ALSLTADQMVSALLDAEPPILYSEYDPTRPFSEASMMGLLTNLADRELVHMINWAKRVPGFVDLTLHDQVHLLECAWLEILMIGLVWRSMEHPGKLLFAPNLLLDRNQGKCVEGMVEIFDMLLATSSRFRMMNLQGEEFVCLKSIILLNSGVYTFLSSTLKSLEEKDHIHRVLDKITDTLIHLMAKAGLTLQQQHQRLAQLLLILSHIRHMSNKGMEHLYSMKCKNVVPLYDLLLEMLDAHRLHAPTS

Structures are written as SMILES.

The target in the assay is recombinant human Estrogen Receptor alpha ligand binding domain (ER alpha-LBD (GST)) (Homo sapiens (Human), UniProt P03372). Nature of the assay: ERα binding assay (LanthaScreen TR-FRET competition). Conditions: read-out: ER binding IC50 value, 50% reduction in tracer binding to ER alpha-LBD. For orientation: Time-resolved FRET reads energy transfer from a long-lived donor to a nearby acceptor.
Regarding `C[C@@H]1Cc2c([nH]c3ccccc23)[C@@H](c2ccc(OCCNCCCF)cn2)N1CC1(F)CC1` [Example 31, 3-fluoro-N-(2-((6-((1S,3R)-2-((1-fluorocyclopropyl)methyl)-3-methyl-2,3,4,9-tetrahydro-1H-pyrido[3,4-b]indol-1-yl)pyridin-3-yl)oxy)ethyl)propan-1-amine], the IC50 is 12 nM. In the case of `C[C@@H]1Cc2c([nH]c3ccccc23)[C@@H](c2c(F)cc(N(C)CCNCCCF)cc2F)N1CC1(F)CC1` [Example 45, N1-(3,5-difluoro-4-((1R,3R)-2-((1-fluorocyclopropyl)methyl)-3-methyl-2,3,4,9-tetrahydro-1H-pyrido[3,4-b]indol-1-yl)phenyl)-N2-(3-fluoropropyl)-N1-methylethane-1,2-diamine], the IC50 turned out to be 4.3 nM. In the case of `C[C@@H]1Cc2c([nH]c3ccccc23)[C@@H](c2ncc(OCCNCCCF)cn2)N1CC(C)(C)F` [Example 39, 3-fluoro-N-(2-((2-((1S,3R)-2-(2-fluoro-2-methylpropyl)-3-methyl-2,3,4,9-tetrahydro-1H-pyrido[3,4-b]indol-1-yl)pyrimidin-5-yl)oxy)ethyl)propan-1-amine], the IC50 came to 11 nM.

As to `COc1nc(OCCNCCCF)ccc1[C@@H]1c2[nH]c3ccccc3c2C[C@@H](C)N1CC(C)(F)F` [Example 77, N-(2-((5-((1R,3R)-2-(2,2-difluoropropyl)-3-methyl-2,3,4,9-tetrahydro-1H-pyrido[3,4-b]indol-1-yl)-6-methoxypyridin-2-yl)oxy)ethyl)-3-fluoropropan-1-amine], the IC50 was found to be 2.1 nM.

With `COc1cc(OCCNCCCF)ncc1[C@@H]1c2[nH]c3ccccc3c2C[C@@H](C)N1CC(C)(F)F` [Example 42, N-(2-((5-((1R,3R)-2-(2,2-Difluoropropyl)-3-methyl-2,3,4,9-tetrahydro-1H-pyrido[3,4-b]indol-1-yl)-4-methoxypyridin-2-yl)oxy)ethyl)-3-fluoropropan-1-amine], the IC50 was 1.2 nM. The result for `COc1cc(OCCNCCCF)ncc1[C@@H]1c2[nH]c3ccccc3c2C[C@@H](C)N1CC(F)(F)F` [Example 41, 3-Fluoro-N-(2-((4-methoxy-5-((1R,3R)-3-methyl-2-(2,2,2-trifluoroethyl)-2,3,4,9-tetrahydro-1H-pyrido[3,4-b]indol-1-yl)pyridin-2-yl)oxy)ethyl)propan-1-amine] reads 1.5 nM; that for `C[C@@H]1Cc2c([nH]c3ccccc23)[C@@H](c2ccc(OCCNCCCF)nc2)N1CC1(F)COC1` [Example 34, 3-fluoro-N-(2-((5-((1R,3R)-2-((3-fluorooxetan-3-yl)methyl)-3-methyl-2,3,4,9-tetrahydro-1H-pyrido[3,4-b]indol-1-yl)pyridin-2-yl)oxy)ethyl)propan-1-amine], 3.2 nM. In the case of `COCC(F)(F)CN1[C@H](c2c(F)cc(OCCNCCCF)cc2F)c2[nH]c3ccccc3c2C[C@H]1C` [Example 14, N-(2-(4-((1R,3R)-2-(2,2-difluoro-3-methoxypropyl)-3-methyl-2,3,4,9-tetrahydro-1H-pyrido[3,4-b]indol-1-yl)-3,5-difluorophenoxy)ethyl)-3-fluoropropan-1-amine], the IC50 stood at 2.5 nM. The same measure for `COc1cc(NCCNCCCF)ncc1[C@@H]1c2[nH]c3ccccc3c2C[C@@H](C)N1CC1(F)COC1` [Example 66, N1-(5-((1R,3R)-2-((3-fluorooxetan-3-yl)methyl)-3-methyl-2,3,4,9-tetrahydro-1H-pyrido[3,4-b]indol-1-yl)-4-methoxypyridin-2-yl)-N2-(3-fluoropropyl)ethane-1,2-diamine]: 5.3 nM; for `C[C@@H]1Cc2c([nH]c3ccccc23)[C@@H](c2c(F)cc(NCCNCCCF)cc2F)N1CC(F)(F)CO` [Example 46, 3-((1R,3R)-1-(2,6-difluoro-4-((2-((3-fluoropropyl)amino)ethyl)amino)phenyl)-3-methyl-1,3,4,9-tetrahydro-2H-pyrido[3,4-b]indol-2-yl)-2,2-difluoropropan-1-ol]: 1.2 nM; for `COc1nc(OCCNCCCF)ccc1[C@@H]1c2[nH]c3ccccc3c2C[C@@H](C)N1CC(F)F` [Example 75, N-(2-((5-((1R,3R)-2-(2,2-difluoroethyl)-3-methyl-2,3,4,9-tetrahydro-1H-pyrido[3,4-b]indol-1-yl)-6-methoxypyridin-2-yl)oxy)ethyl)-3-fluoropropan-1-amine]: 4.5 nM. The result for `COc1nc(NCCNCCCF)ccc1[C@@H]1c2[nH]c3ccccc3c2C[C@@H](C)N1CC(F)F` [Example 76, N1-(5-((1R,3R)-2-(2,2-difluoroethyl)-3-methyl-2,3,4,9-tetrahydro-1H-pyrido[3,4-b]indol-1-yl)-6-methoxypyridin-2-yl)-N2-(3-fluoropropyl)ethane-1,2-diamine] reads 3 nM. The result for `C[C@@H]1Cc2c([nH]c3ccccc23)[C@@H](c2ccc(OCCNCCCF)cc2F)N1CC(F)F` [Example 48, N-(2-(4-((1R,3R)-2-(2,2-difluoroethyl)-3-methyl-2,3,4,9-tetrahydro-1H-pyrido[3,4-b]indol-1-yl)-3-fluorophenoxy)ethyl)-3-fluoropropan-1-amine] reads 1.5 nM; that for `C[C@@H]1Cc2c([nH]c3ccccc23)[C@@H](c2ccc(OCCNCCCF)cc2F)N1CC(C)(F)F` [Example 55, N-(2-(4-((1R,3R)-2-(2,2-difluoropropyl)-3-methyl-2,3,4,9-tetrahydro-1H-pyrido[3,4-b]indol-1-yl)-3-fluorophenoxy)ethyl)-3-fluoropropan-1-amine], 1.6 nM. Consider `C[C@@H]1Cc2c([nH]c3ccccc23)[C@@H](c2ccc(OCCNCCCF)cn2)N1CC1(F)COC1` [Example 32, 3-fluoro-N-(2-((6-((1S,3R)-2-((3-fluorooxetan-3-yl)methyl)-3-methyl-2,3,4,9-tetrahydro-1H-pyrido[3,4-b]indol-1-yl)pyridin-3-yl)oxy)ethyl)propan-1-amine], for which the IC50 was found to be 37 nM. The same measure for `C[C@@H]1Cc2c([nH]c3ccccc23)[C@@H](c2cnc(OCCNCCCF)cn2)N1CC(F)F` [Example 70, N-(2-((5-((1S,3R)-2-(2,2-difluoroethyl)-3-methyl-2,3,4,9-tetrahydro-1H-pyrido[3,4-b]indol-1-yl)pyrazin-2-yl)oxy)ethyl)-3-fluoropropan-1-amine]: 1.2 nM; for `C[C@@H]1Cc2c([nH]c3ccccc23)[C@@H](c2ccc(OCCNCCCF)cc2F)N1CC1(F)CC1` [Example 21, 3-fluoro-N-(2-(3-fluoro-4-((1R,3R)-2-((1-fluorocyclopropyl)methyl)-3-methyl-2,3,4,9-tetrahydro-1H-pyrido[3,4-b]indol-1-yl)phenoxy)ethyl)propan-1-amine]: 4.8 nM; for `COc1cc(OCCNCCCF)ccc1[C@@H]1c2[nH]c3ccccc3c2C[C@@H](C)N1CC(F)(F)F` [Example 73, 3-fluoro-N-(2-(3-methoxy-4-((1R,3R)-3-methyl-2-(2,2,2-trifluoroethyl)-2,3,4,9-tetrahydro-1H-pyrido[3,4-b]indol-1-yl)phenoxy)ethyl)propan-1-amine]: 2.7 nM.

As to `COc1cc(OCCNCCCF)ncc1[C@@H]1c2[nH]c3ccccc3c2C[C@@H](C)N1CC(F)(F)CO` [Example 64, 2,2-difluoro-3-((1R,3R)-1-(6-(2-((3-fluoropropyl)amino)ethoxy)-4-methoxypyridin-3-yl)-3-methyl-1,3,4,9-tetrahydro-2H-pyrido[3,4-b]indol-2-yl)propan-1-ol], the IC50 was determined as 1.2 nM. The same measure for `C[C@@H]1Cc2c([nH]c3ccccc23)[C@@H](c2c(F)cc(OCC(CO)NCCCF)cc2F)N1CC(C)(C)F` (stereo partly drawn) [Example 20, 3-(3,5-difluoro-4-((1R,3R)-2-(2-fluoro-2-methylpropyl)-3-methyl-2,3,4,9-tetrahydro-1H-pyrido[3,4-b]indol-1-yl)phenoxy)-2-((3-fluoropropyl)amino)propan-1-ol]: 1.8 nM. As for `C[C@@H]1Cc2c([nH]c3ccccc23)[C@@H](c2cnc(NCCNCCCF)cn2)N1CC(F)F` [Example 71, N1-(5-((1S,3R)-2-(2,2-difluoroethyl)-3-methyl-2,3,4,9-tetrahydro-1H-pyrido[3,4-b]indol-1-yl)pyrazin-2-yl)-N2-(3-fluoropropyl)ethane-1,2-diamine], the IC50 amounted to 1 nM.

In the case of `C[C@@H]1Cc2c([nH]c3ccccc23)[C@@H](c2c(F)cc(OCCNCCCF)cc2F)N1CC(C)(F)CO` (single isomer, unassigned) [Example 17], the IC50 is 1.4 nM. Consider `C[C@@H]1Cc2c([nH]c3ccccc23)[C@@H](c2c(F)cc(N(C)CCNCCCF)cc2F)N1CC(F)F` [Example 49, N1-(4-((1R,3R)-2-(2,2-difluoroethyl)-3-methyl-2,3,4,9-tetrahydro-1H-pyrido[3,4-b]indol-1-yl)-3,5-difluorophenyl)-N2-(3-fluoropropyl)-N1-methylethane-1,2-diamine], for which the IC50 was 2.1 nM.

With `COc1cc(OCCNCCCF)ncc1[C@@H]1c2[nH]c3ccccc3c2C[C@@H](C)N1CC(F)F` [Example 40, N-(2-((5-((1R,3R)-2-(2,2-difluoroethyl)-3-methyl-2,3,4,9-tetrahydro-1H-pyrido[3,4-b]indol-1-yl)-4-methoxypyridin-2-yl)oxy)ethyl)-3-fluoropropan-1-amine], the IC50 was 1.7 nM. Consider `CC(C)CN1[C@H](c2ccc(OCCNCCCF)cc2)c2[nH]c3ccccc3c2C[C@H]1C` [Example 2, 3-fluoro-N-(2-(4-((1R,3R)-2-isobutyl-3-methyl-2,3,4,9-tetrahydro-1H-pyrido[3,4-b]indol-1-yl)phenoxy)ethyl)propan-1-amine], for which the IC50 was 4.3 nM.

Turning to `COc1cc(NCCNCCCF)ccc1[C@@H]1c2[nH]c3ccccc3c2C[C@@H](C)N1CC(F)F` [Example 61, N1-(4-((1R,3R)-2-(2,2-difluoroethyl)-3-methyl-2,3,4,9-tetrahydro-1H-pyrido[3,4-b]indol-1-yl)-3-methoxyphenyl)-N2-(3-fluoropropyl)ethane-1,2-diamine], the IC50 stood at 4.3 nM. The result for `COc1cc(NCCNCCCF)ncc1[C@@H]1c2[nH]c3ccccc3c2C[C@@H](C)N1CC(C)(F)F` [Example 68, N1-(5-((1R,3R)-2-(2,2-difluoropropyl)-3-methyl-2,3,4,9-tetrahydro-1H-pyrido[3,4-b]indol-1-yl)-4-methoxypyridin-2-yl)-N2-(3-fluoropropyl)ethane-1,2-diamine] reads 2.6 nM.

For orientation: IC50 means the point on the concentration scale where inhibition reaches its midpoint.
